pKi: −log10 of the molar value.
Target: hCA I (Homo sapiens, UniProt P00915)
Assay: In vitro CA inhibition assay, hCA I
Assay type: biochemical
Conditions: unit from table title

By UniProt entry, the sequences of proteins in these tests, tags left out. Where a name states a change or a piece, a line headed by the entry shows the natural chain unless it says otherwise.
UniProt P00915: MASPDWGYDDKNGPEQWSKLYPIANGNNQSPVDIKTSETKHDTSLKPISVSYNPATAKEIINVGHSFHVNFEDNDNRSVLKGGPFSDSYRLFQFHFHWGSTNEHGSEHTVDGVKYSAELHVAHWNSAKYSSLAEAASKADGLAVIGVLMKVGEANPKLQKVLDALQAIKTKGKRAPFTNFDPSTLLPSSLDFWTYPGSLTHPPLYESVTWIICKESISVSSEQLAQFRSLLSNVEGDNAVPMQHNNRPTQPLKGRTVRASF

pKi	Compound
5.47	Cc1cc(=O)oc2cc(OC3OCC(O)C(O)C3O)ccc12 [MST-201, 4-methylumbellifer-7-yl- -D-xylopyranoside]
< 4.00	Cc1cc(=O)oc2cc(O[C@@H]3OC[C@@H](O)C(O)C3O)ccc12 (stereo partly drawn) [MST-207, 4-methylumbellifer-7-yl- -D-ribopyranoside]
